From publication PMC7615656 (European journal of pharmacology, 2010)

The chains behind the UniProt entries cited, without tags or fusion partners. Where a name states a change or a piece, a line headed by the entry shows the natural chain unless it says otherwise. Residues count along the entry.
UniProt P18508, 39-466 F115I: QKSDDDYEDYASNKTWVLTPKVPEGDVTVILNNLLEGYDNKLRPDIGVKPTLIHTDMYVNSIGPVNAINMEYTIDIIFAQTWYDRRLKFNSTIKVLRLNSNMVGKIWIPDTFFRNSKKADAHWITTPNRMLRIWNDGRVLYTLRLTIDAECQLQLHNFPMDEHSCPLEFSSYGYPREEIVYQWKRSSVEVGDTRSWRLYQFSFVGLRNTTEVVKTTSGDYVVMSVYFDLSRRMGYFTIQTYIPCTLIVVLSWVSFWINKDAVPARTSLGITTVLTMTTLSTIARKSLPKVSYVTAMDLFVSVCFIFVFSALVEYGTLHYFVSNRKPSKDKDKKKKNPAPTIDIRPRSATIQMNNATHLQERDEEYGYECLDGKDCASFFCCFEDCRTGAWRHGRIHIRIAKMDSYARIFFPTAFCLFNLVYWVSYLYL
UniProt P18508, 39-466: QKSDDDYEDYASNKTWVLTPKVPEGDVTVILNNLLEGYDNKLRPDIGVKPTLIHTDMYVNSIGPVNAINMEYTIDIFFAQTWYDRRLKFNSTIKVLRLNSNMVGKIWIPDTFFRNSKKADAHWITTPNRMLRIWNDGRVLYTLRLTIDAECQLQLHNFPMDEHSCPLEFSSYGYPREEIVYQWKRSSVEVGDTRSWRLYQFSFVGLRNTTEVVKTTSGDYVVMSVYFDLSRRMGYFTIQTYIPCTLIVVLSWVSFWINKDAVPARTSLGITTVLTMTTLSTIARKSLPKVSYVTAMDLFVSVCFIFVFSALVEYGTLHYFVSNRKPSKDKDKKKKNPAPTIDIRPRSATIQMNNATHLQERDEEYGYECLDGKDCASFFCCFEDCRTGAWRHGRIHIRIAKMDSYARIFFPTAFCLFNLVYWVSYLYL
UniProt P23576, 29-451: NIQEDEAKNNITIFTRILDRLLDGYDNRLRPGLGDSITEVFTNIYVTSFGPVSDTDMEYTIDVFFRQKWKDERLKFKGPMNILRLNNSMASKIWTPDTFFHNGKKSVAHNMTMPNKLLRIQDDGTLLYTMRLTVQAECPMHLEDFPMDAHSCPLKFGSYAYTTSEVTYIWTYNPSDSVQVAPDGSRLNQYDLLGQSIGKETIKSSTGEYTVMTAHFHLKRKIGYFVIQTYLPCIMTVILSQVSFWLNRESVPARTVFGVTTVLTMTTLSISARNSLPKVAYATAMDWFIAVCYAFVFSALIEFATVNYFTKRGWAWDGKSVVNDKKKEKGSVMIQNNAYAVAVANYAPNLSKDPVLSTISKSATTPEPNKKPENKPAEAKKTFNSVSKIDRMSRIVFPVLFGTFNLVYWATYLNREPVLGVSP

How the values were obtained:
[1] = target: recombinant rat α2β3γ2F77I receptors (Rattus norvegicus, UniProt P18508+P23576, F115I); test: Two-electrode voltage clamp of GABA-induced chloride currents in Xenopus oocytes; type: cell-based
[2] = target: recombinant rat α2β3γ2 receptors (Rattus norvegicus, UniProt P18508+P23576); test: as above; type: cell-based; settings: mean ± SEM

**Q.** `NCCCC(=O)O` [GABA] was tested. Which “Hill coefficient of GABA dose–response curve” value [1] did it give?
**A.** 0.8

**Q.** What about the “maximum GABA-induced current” value ([1]; mean ± SEM) of the same molecule?
**A.** 7 ± 0.9 µA

**Q.** What about the “maximum GABA-induced current” value [2] of the same molecule?
**A.** 4 ± 0.4 µA
